From patent publication US6664273B2, “Piperidine based MCH antagonists for treatment of obesity and CNS disorders” (Schering Corporation, priority 2001, dated 2003) come the findings set out here.

By UniProt entry, the sequences of proteins in these tests, tags left out.
UniProt Q99705, whole entry: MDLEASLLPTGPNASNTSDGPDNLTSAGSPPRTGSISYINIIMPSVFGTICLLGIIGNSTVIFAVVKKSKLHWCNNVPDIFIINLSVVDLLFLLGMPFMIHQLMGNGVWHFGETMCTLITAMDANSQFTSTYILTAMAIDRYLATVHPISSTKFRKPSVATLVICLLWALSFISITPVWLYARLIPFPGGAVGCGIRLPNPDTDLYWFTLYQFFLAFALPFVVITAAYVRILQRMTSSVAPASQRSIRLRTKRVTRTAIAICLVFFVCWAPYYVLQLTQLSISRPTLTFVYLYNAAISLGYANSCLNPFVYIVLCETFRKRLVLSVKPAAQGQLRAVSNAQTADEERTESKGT

Structures are written as SMILES.

The target in this assay is MCH receptor (Homo sapiens, UniProt Q99705). Put plainly: MCH Receptor Binding Assay. The conditions noted are these: read-out: Avg. MCH Ki; [125I]-MCH, SPA, membranes from CHO cells expressing the MCH receptor. The procedure: Membranes from CHO cells expressing the MCH receptor were prepared by lysing cells with 5 mM HEPES for 15 min at 4C. Cell lysates were centrifuged ([…], 15 min) and the pellet was re-suspended in 5 mM HEPES. For each 96-well plate (Microlite, Dynex Technologies), 1 mg of cell membranes were incubated with 10 mg of wheat germ agglutinin SPA beads (Amersham) for 5 min at 4 C in a volume of 10 ml of binding buffer (25 mM HEPES, 10 mM MGCl2, 10 mM NaCl, 5 mM MnCl2, 0.1% BSA). The membrane/bead mixture was centrifuged (1500×g, 3.5 min), the supernatant was aspirated, and the pellet was re-suspended in 10 ml binding buffer. The centrifugation, aspiration and re-suspension were then repeated. The membrane/bead mixture (100 μl) was then added to 96-well plates containing 50 μl of 500 pM [^125I]-MCH (NEN) and […] of the appropriate concentration of compound (4× the desired final concentration). Nonspecific binding was determined by including 1 μM MCH in the binding reaction. The binding reaction was incubated at room temperature for 2 h. Plates were then analyzed in a TOPCOUNT microplate scintillation counter (Packard). Data was analyzed and Ki values were determined using GraphPad Prism.

One may read the Ki as a measure of affinity in units of concentration, obtained from inhibition or displacement. `CC1CCC(N2CCC(OCC(=O)Nc3cc(Cl)cc(Cl)c3)(c3ccc(-c4cccc(C#N)c4)cc3)CC2)CC1` (stereo not shown): the Ki was determined as 13 nM.
